Measured values as given in BindingDB's records for doi:10.1016/j.chembiol.2010.06.011 (Leiden University, 2010).

The molecules below were run against T1, Disulfide bond formation protein B (Escherichia coli (strain K12), UniProt P0A6M2) (assay: Biochemical Assay). Settings: pH 6.2; 30 °C.
T1 sequence (P0A6M2 whole entry): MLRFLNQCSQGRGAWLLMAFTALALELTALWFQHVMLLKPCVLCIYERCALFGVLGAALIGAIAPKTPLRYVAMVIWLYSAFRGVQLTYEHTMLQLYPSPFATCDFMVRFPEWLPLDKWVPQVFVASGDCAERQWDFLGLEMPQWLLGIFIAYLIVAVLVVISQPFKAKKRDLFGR
From the text: 13 fragments with strong inhibition in the single concentration point assay were chose from the micelle screen for further analysis using a biochemical assay.

IC50 | SMILES
168 µM | CC1(C)CC(=O)N(CC(=O)O)c2ccccc2S1 [2-(2,2-dimethyl-4-oxo-3H-1,5-benzothiazepin-5-yl)acetic acid]
193 µM | O=C(COc1ccccc1)Nc1ccc(O)cc1 [Fragment 3]
46 µM | O=c1cc(O)c2ccc(Cl)cc2[nH]1 [Fragment 5]
115 µM | Cc1ccc2scc(CC(=O)O)c2c1 [Fragment 7]

SMILES | IC50
Cc1cc(C(=O)O)c(C)n1Cc1ccccc1 | 13 µM
